Here are results for one compound from publication PMC12101717, “Structure and dynamics determine G protein coupling specificity at a class A GPCR” (Science Advances, 2025).

Sequences of proteins named here, by UniProt entry; tags and fusion partners are left off.
UniProt P08588, whole entry: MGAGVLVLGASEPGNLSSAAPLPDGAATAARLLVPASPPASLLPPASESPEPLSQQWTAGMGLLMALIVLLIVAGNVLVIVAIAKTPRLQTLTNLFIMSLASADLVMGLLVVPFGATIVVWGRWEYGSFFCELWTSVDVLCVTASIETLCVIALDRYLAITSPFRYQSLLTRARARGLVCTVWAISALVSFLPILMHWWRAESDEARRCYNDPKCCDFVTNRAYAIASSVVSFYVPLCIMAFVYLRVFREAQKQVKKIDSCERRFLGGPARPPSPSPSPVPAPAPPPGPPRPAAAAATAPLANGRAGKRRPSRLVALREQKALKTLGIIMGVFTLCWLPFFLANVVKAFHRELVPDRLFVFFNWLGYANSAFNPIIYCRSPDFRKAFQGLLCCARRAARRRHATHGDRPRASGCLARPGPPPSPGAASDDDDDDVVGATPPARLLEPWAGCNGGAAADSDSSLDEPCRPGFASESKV

The target in experiment [1] is T1, β1AR (Homo sapiens, UniProt P08588). Description: Radioligand binding assay with membranes from HEK cells.
The target of experiment [2] is T1, β1AR. Description: β-Arrestin-2 recruitment (PathHunter assay). It is filed as cell-based. Further details: expressed in transfected cells; host or cells: HEK293T stably expressing enzyme-acceptor-tagged β-arrestin-2. On the technique in general: Arrestin recruitment assays detect the binding of arrestin to an activated receptor.

Broadly, the Ki is the equilibrium dissociation constant of an inhibitor or competing ligand from its target. For orientation: EC50 means the midpoint of the concentration-response curve. Lower therefore signals an effect from little substance. For `CNC[C@H](O)c1ccc(O)c(O)c1` [Epinephrine, epinephrine, reference compound], the affinity at β1AR [1], expressed as Ki, was 2200 ± 290 nM. At β1AR [2], this compound registered an EC50 of 380 ± 52 nM.
